Experimental data published in patent US9394291B2, “Benzoxazinone amides as mineralocorticoid receptor modulators” (AstraZeneca AB, priority 2014, dated 2016).
Like-named read-outs stand apart in the source and are kept apart here.

Chains of the proteins cited; added tags and fusions are not shown. Residues count along the entry.
UniProt P08235, 729-984 limits assumed: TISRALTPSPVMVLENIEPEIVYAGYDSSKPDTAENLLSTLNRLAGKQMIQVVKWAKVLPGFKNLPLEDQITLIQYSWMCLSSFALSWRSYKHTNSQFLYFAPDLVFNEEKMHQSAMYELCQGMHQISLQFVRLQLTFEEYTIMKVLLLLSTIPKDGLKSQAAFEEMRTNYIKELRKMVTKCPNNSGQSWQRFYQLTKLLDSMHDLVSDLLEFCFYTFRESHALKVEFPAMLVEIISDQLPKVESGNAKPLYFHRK

Columns and labels:
[1] = target: T1, MR (UAS-MR-bla HEK293 cells) (Homo sapiens, UniProt P08235); test: Mineralocorticoid Cellular Reporter Gene Assay, Test B1 (0.25 nM aldosterone); details: aldosterone 0.25 nM
[2] = target: T2, human MR LBD (Homo sapiens (Human), UniProt P08235); test: Mineralocorticoid Binding, Test A1 (SPA beads, 3H-aldosterone displacement); details: displacement of 5 nM 3H-aldosterone, MBP-MR LBD/P23 lysate
[3] = target: T1, MR (UAS-MR-bla HEK293 cells); test: cell-based; details: Test B2 IC50 (nM), aldosterone 1 nM
[4] = target: T2, human MR LBD; details: read-out: Test A2 IC50; displacement of 5 nM 3H-aldosterone, MBP-MR LBD/P23 lysate, Imaging beads

IC50 [1] [nM]	IC50 [2] [nM]	IC50 [3] [nM]	IC50 [4] [nM]	SMILES
74	–	8.4	–	CNC(=O)C[C@H]1COc2cc(Cl)ccc2N1C(=O)c1ccc2c(c1)NC(=O)CO2 [Example 6a, 2-{(3S)-7-Chloro-4-[(3-oxo-3,4-dihydro-2H-1,4-benzoxazin-6-yl)carbonyl]-3,4-dihydro-2H-1,4-benzoxazin-3-yl}-N-methylacetamide]
4100	–	1100	–	CNC(=O)C[C@@H]1COc2cc(Cl)ccc2N1C(=O)c1ccc2c(c1)NC(=O)CO2 [Example 6b, 2-{(3R)-7-Chloro-4-[(3-oxo-3,4-dihydro-2H-1,4-benzoxazin-6-yl)carbonyl]-3,4-dihydro-2H-1,4-benzoxazin-3-yl}-N-methylacetamide]
1800	1600	640	–	CNC(=O)C[C@@H]1COc2cc(Br)ccc2N1C(=O)c1ccc2c(c1)NC(=O)CO2 [Example 8a, 2-{(3R)-7-Bromo-4-[(3-oxo-3,4-dihydro-2H-1,4-benzoxazin-6-yl)carbonyl]-3,4-dihydro-2H-1,4-benzoxazin-3-yl}-N-methylacetamide]
48	10	21	–	CNC(=O)C[C@H]1COc2cc(Br)ccc2N1C(=O)c1ccc2c(c1)NC(=O)CO2 [Example 8b, 2-{(3S)-7-Bromo-4-[(3-oxo-3,4-dihydro-2H-1,4-benzoxazin-6-yl)carbonyl]-3,4-dihydro-2H-1,4-benzoxazin-3-yl}-N-methylacetamide]

Further lines, the compound ahead of its results:

SMILES	IC50 [1] [nM]	IC50 [2] [nM]	IC50 [3] [nM]	IC50 [4] [nM]
CNC(=O)CC1COc2ccccc2N1C(=O)c1ccc2c(c1)NC(=O)CO2 (single isomer, unassigned) [Example 2a, N-Methyl-2-{3S or 3R)-4-[(3-oxo-3,4-dihydro-2H-1,4-benzoxazin-6-yl)carbonyl]-3,4-dihydro-2H-1,4-benzoxazin-3-yl}acetamide]	680	230	140	–
CNC(=O)CC1COc2ccccc2N1C(=O)c1ccc2c(c1)NC(=O)CO2 (single isomer, unassigned) [Example 2b, N-Methyl-2-{3S or 3R)-4-[(3-oxo-3,4-dihydro-2H-1,4-benzoxazin-6-yl)carbonyl]-3,4-dihydro-2H-1,4-benzoxazin-3-yl}acetamide]	–	–	5300	–
CNC(=O)CC1COc2ccccc2N1C(=O)c1ccc2c(c1)NC(=O)CO2 (stereo not shown) [Example 2]	–	–	300	1800
NC(=O)C[C@H]1COc2cc(Cl)ccc2N1C(=O)c1ccc2c(c1)NC(=O)CO2 [Example 5a, 2-{(3S)-7-Chloro-4-[(3-oxo-3,4-dihydro-2H-1,4-benzoxazin-6-yl)carbonyl]-3,4-dihydro-2H-1,4-benzoxazin-3-yl}acetamide]	56	16	–	–
NC(=O)C[C@@H]1COc2cc(Cl)ccc2N1C(=O)c1ccc2c(c1)NC(=O)CO2 [Example 5b, 2-{(3R)-7-Chloro-4-[(3-oxo-3,4-dihydro-2H-1,4-benzoxazin-6-yl)carbonyl]-3,4-dihydro-2H-1,4-benzoxazin-3-yl}acetamide]	10400	4900	–	–
CNC(=O)CC1COc2cc(Cl)ccc2N1C(=O)c1ccc2c(c1)NC(=O)CO2 (stereo not shown) [Example 6, 2-{7-Chloro-4-[(3-oxo-3,4-dihydro-2H-1,4-benzoxazin-6-yl)carbonyl]-3,4-dihydro-2H-1,4-benzoxazin-3-yl}-N-methylacetamide]	180	–	31	–
CNC(=O)CC1COc2cc(Br)ccc2N1C(=O)c1ccc2c(c1)NC(=O)CO2 (stereo not shown) [Example 8, 2-{7-Bromo-4-[(3-oxo-3,4-dihydro-2H-1,4-benzoxazin-6-yl)carbonyl]-3,4-dihydro-2H-1,4-benzoxazin-3-yl}-N-methylacetamide]	110	40	15	–
